Measured values reported in patent US20090186811A1 (published 2009).

Protein sequences, listed by entry. Tags and fused reporters are not part of them.
UniProt P49146, whole entry: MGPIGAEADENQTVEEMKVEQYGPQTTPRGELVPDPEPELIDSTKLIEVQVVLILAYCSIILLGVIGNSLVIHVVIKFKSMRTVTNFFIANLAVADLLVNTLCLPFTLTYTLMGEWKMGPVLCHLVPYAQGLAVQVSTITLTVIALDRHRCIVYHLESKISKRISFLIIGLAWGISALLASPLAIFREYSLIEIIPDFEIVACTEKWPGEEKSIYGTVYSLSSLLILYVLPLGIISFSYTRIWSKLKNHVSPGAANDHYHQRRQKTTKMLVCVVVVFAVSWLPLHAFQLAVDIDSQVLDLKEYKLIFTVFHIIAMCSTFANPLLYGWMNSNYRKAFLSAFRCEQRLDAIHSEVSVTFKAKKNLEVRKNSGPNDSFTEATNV
UniProt P25929, whole entry: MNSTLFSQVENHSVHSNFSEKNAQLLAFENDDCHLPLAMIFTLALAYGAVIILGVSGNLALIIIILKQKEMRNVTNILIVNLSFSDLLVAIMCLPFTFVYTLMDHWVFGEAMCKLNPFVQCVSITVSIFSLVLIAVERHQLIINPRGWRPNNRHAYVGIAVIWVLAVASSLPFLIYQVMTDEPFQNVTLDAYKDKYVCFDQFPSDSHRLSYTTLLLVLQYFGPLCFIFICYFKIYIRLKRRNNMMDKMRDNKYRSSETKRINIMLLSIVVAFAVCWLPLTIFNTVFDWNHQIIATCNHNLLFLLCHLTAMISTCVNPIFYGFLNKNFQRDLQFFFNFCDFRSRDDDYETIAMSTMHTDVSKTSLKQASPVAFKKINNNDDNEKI

B1: Fluorescein-[Cys2,N-{(Ala-Arg-Arg-Arg-Ala-Ala-Arg-Ala)3}-Lys13,D-Cys27]PYY (peptide)
peptide: not shown
chain: ARRRAARAARRRAARAARRRAARA
modifications: fluorescein (5,6 isomer) on the N-terminus; C-terminus amide-linked to the epsilon amino group of Lys13 of the PYY chain; epsilon amino group of Lys13 joined by an amide bond to the C-terminus of the 24-residue GAG-binding motif; D-Cys at position 27; disulfide bridge Cys2 to D-Cys27; C-terminal amide

Legend:
[1] = biological target: human Y2 receptor (human, UniProt P49146 1-381); experiment: cell-based or functional assay
[2] = biological target: T1, human Y1 receptor (human, UniProt P25929 1-384); experiment: competition binding, 125I-NPY displaced, COS-7 cells with human Y1
T1 construct: whole, on cells

Binder | EC50 (inositol phosphate turnover) [1] | IC50 [2]
KKKKKKRHYLNLVTRQRY (C-terminal amide, also called [Lys]6-PYY25-36) [Lys-Lys-Lys-Lys-Lys-Lys-PYY25-36] | 213 nM | 520 nM
B1 | 0.37 nM | –
